Test results: article PMC8657982, “Overlap and Specificity in the Substrate Spectra of Human Monoamine Transporters and Organic Cation Transporters 1, 2, and 3” (International Journal of Molecular Sciences, 2021)

Protein sequences, listed by entry. Tags and fused reporters are not part of them.
UniProt P31645, whole entry: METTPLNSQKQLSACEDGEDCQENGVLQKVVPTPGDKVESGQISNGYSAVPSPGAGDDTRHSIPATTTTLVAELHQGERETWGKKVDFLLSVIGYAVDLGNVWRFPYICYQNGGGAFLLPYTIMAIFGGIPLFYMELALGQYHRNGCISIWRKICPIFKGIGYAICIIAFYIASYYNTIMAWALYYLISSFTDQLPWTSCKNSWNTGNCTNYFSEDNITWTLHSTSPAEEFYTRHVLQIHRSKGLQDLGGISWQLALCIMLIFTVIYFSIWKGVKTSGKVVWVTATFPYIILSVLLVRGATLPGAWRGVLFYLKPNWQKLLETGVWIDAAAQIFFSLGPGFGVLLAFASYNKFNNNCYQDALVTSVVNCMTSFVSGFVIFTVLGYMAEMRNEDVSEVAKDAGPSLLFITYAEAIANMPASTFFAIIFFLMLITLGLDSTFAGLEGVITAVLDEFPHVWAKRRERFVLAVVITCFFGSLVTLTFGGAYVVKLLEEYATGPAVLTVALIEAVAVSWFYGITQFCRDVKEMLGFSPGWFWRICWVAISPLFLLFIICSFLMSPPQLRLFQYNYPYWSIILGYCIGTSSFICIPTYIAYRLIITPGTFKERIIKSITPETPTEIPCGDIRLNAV

Target: SERT (Homo sapiens, UniProt P31645)
Assay: Uptake into HEK293 cells overexpressing SERT (uptake ratio and concentration-dependent uptake);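 also: incubation at 37 °C, intracellular compound quantified by HPLC-MS/MS after cell lysis, uptake normalized to total protein measured by bicinchoninic acid assay; ratio of uptake in SERT cells over empty-vector control cells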

Structure (SMILES): CC(Cc1ccc(O)cc1)NCC(O)c1cc(O)cc(O)c1 (stereo not shown) [Fenoterol, reference compound]
- Uptake Ratio by Transporter SERT: 1.34
